From US20090069565A1, “NEW INDOLE DERIVATIVES AS FACTOR XA INHIBITORS” (priority 2001, published 2009)

Chains of the proteins cited; added tags and fusions are not shown. Residues count along the entry.
UniProt P00742, 41-179 partner limits assumed: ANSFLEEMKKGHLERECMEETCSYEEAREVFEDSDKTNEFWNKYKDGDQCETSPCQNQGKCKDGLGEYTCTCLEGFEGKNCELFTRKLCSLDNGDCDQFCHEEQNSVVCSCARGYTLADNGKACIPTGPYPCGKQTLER
UniProt P00742, 235-488 limits assumed: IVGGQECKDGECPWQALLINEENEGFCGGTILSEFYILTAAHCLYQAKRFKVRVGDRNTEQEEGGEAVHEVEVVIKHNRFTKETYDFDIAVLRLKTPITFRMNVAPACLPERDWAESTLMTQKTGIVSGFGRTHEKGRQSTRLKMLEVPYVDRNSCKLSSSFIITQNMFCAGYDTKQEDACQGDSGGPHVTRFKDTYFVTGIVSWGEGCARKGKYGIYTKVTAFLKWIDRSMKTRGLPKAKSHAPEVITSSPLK

Target: human factor Xa (Homo sapiens, UniProt P00742)
Assay: Factor Xa assay (chromogenic, substrate S-2765);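 note: purified enzyme preincubated with inhibitor for 10 min before substrate addition, final reaction volume 100 µl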
Format: biochemical
Conditions: inhibition constant for factor Xa; purified enzyme 0.5 nM, substrate S-2765 140 μM, 25° C., pH 7.8; Ki=IC50/{1+(substrate concentration/Km)}; read-out: Ki(FXa)

## CC(C)NC1CCN(C(=O)c2cc3ccccc3n2Cc2cc(-c3ccc(Cl)s3)on2)CC1 [Example 34, {1-[5-(5-Chloro-thiophen-2-yl)-isoxazol-3-ylmethyl]-1H-indol-2-yl}-(4-isopropylamino-piperidin-1-yl)-methanone]
  Ki: 3 µM
